Source: US20260327262A1, “BICYCLIC PEPTIDE LIGANDS SPECIFIC FOR EPHA2” (BicycleTx Limited, priority 2019, published 2026)

The chains behind the UniProt entries cited, without tags or fusion partners. Residues count along the entry.
UniProt P29317, 24-976: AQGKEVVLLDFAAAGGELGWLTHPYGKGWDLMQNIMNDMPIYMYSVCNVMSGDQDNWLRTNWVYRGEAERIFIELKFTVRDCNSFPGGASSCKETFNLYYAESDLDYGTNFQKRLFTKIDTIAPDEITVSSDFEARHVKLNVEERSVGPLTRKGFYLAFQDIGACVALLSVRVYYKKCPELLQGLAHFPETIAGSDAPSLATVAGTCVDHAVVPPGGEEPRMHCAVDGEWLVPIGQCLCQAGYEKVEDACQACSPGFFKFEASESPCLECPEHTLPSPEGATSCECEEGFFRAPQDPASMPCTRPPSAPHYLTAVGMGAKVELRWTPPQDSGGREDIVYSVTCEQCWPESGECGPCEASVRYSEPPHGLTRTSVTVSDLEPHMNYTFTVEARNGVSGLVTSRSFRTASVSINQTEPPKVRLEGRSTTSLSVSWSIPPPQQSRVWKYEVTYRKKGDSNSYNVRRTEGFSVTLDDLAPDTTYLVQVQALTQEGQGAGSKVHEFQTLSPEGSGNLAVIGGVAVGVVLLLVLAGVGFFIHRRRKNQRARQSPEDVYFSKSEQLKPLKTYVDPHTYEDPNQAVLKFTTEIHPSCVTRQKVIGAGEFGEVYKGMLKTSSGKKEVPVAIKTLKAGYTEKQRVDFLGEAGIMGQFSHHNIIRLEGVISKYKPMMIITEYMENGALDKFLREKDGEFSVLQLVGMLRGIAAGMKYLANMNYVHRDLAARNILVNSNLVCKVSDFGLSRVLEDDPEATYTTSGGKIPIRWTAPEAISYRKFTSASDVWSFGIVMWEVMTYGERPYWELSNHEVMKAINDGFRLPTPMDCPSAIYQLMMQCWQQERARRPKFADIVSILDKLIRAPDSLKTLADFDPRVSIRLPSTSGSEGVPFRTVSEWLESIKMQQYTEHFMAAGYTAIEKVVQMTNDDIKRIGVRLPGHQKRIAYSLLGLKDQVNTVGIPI

biological target: human EphA2 (Homo sapiens, UniProt P29317); assay: Competition Binding Assay (fluorescence polarisation, competition with fluorescent tracer BCY90)

Q: “A-[HArg]-D-Ci[HyP]LVNPLCiiLEP[dA]WTCiii [BCY12858]” was tested. Which Ki did it give?
A: The Ki was 8.19 nM.

Q: With “A-[HArg]-D-Ci[HyP]LVNPLCiiLEP[dD]WTCiii [BCY12856]” as the substance, how does the Ki read?
A: The Ki was 4.63 nM.

Q: With “A-[HArg]-D-Ci[HyP]LVNPLCiiL[3,3-DPA]P[dD]WTCiii [BCY12859]” as the substance, how does the Ki read?
A: The Ki was 0.723 nM.

Q: “[d1Nal]-[HArg]-D-Ci[HyP][Cba]VNPLCiiLEP[dA]WTCiii-[dA] [BCY13124]” was tested. Which Ki did it give?
A: Its Ki is 7.62 nM.

Q: “[dA]-[HArg]-D-Ci[HyP][Cba]VNPLCiiLEP[dA]WTCiii-[dA] [BCY13123]” was tested. Which Ki did it give?
A: The Ki was 6.44 nM.

Q: Which Ki does the source give for “[dA]-[dA]-D-Ci[HyP]LVNPLCiiLEP[dD]WTCiii [BCY13127]” here?
A: Its Ki is 14.9 nM.
